Assay: Oxidation in air / reduction with dithionite followed by 1H NMR
Type: physicochemical

Q: With “cobalt (II) complex of 2,2′-(1,7-dioxa-4,10-diazacyclododecane-4,10-diyl)diacetamide chloride [[Co(NODA)]^2+]” as the substance, how does the “stability towards oxidation in air (in words)” value read?
A: air-stable

Source: patent publication US10960088B2, “Macrocycles, cobalt and iron complexes of same, and methods of making and using same” (The Research Foundation for The State University of New York, priority 2013, dated 2021)
